# PubChem BioAssay AID1259310 (The Scripps Research Institute Molecular Screening Center, 2017)
# Amino acid sequences for entries named in this document (tags omitted).
# UniProt Q969H0, whole entry, looked up: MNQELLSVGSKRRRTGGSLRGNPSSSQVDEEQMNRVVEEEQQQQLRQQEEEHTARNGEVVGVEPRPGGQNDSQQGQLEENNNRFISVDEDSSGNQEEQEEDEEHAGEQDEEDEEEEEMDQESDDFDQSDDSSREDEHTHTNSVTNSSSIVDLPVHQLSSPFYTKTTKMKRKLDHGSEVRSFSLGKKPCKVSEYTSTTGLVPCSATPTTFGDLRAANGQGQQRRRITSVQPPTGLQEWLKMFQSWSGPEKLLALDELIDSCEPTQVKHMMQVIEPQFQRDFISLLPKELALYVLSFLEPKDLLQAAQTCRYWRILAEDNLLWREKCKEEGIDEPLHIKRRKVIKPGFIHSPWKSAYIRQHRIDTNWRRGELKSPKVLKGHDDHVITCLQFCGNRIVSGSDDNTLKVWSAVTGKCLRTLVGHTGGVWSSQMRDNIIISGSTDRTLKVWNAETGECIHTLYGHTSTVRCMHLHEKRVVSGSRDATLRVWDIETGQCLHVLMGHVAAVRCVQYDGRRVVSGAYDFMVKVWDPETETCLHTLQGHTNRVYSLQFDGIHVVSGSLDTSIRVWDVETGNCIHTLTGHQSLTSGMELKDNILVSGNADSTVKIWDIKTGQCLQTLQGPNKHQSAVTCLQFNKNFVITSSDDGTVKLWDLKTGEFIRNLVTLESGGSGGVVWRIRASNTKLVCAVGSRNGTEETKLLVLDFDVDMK
# The entries are a selection whose mix differs from that of the whole data set. Calls of active or inactive are those of the source. Cut-off read from the data, not from the text of the source: active = normalized activity above about 1.9%; inactive = the rest.
# Biological target: F-box/WD repeat-containing protein 7 (Homo sapiens) (UniProt Q969H0)
# Test: FBW7 E3 ligase activators, primary screen, biochemical, AlphaScreen, human (AID 1259310);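 note: purified mutant Fbw7 with reduced substrate affinity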
# Conditions: AlphaScreen FBW7–phospho-cyclin E peptide binding, activator screen; at 26.1 µM; stronger effect = higher value
row,SMILES,normalized activity (activation)
1,CC(=O)OC=C1c2cc([N+](=O)[O-])cc([N+](=O)[O-])c2-c2c1cc([N+](=O)[O-])cc2[N+](=O)[O-],inactive: -0.21%
2,Cc1cc(SC(NC(=O)CC(C)C)C(Cl)(Cl)Cl)ncn1 (stereo unspecified),inactive: 0.49%
3,N=C1N=C(c2ccc([N+](=O)[O-])cc2)CC(C(Cl)(Cl)Cl)S1 (stereo unspecified),inactive: -0.3%
4,Nc1c([N+](=O)[O-])cc([N+](=O)[O-])c(Nc2cccc(C(=O)O)c2)c1[N+](=O)[O-],inactive: -0.11%
5,Oc1ccccc1CNc1ccccn1,inactive: -0.13%
6,COc1ccc2c(c1)nc(NCCCl)n2C,inactive: 0.73%
7,Nc1cc(N)c2nonc2c1[N+](=O)[O-],inactive: -0.46%
8,O=C(Nc1ccc([N+](=O)[O-])cc1Cl)c1ccc([N+](=O)[O-])cc1[N+](=O)[O-],inactive: 0.04%
9,CCOP(=O)(OCC)SCC(=O)NCCC(=O)O,inactive: 0%
10,COC(=O)c1ccc(OP2(=S)OCC(C)(C)CO2)cc1,inactive: 0.96%
11,CCCCOP(=O)(OCCCC)SC,inactive: 0.23%
12,CCOc1ccc(/C=C2/C(=O)NC(=O)N(Cc3ccco3)C2=O)cc1,inactive: -0.42%
13,CCN(CC)C1=NP(=O)(c2ccccc2)NC(c2ccccc2)=C1C#N (stereo unspecified),inactive: -0.04%
14,Cc1cc(C)nc(SC(NC(=O)C(C)C)C(Cl)(Cl)Cl)n1 (stereo unspecified),inactive: -0.07%
15,CCOC(=O)N1C2CCC1CC(OC(=O)C(O)(c1ccccc1)c1ccccc1)C2 (stereo unspecified),inactive: -0.07%
16,COc1ccc(CCN2CCC(N(Cc3ccco3)C(=O)NC(C)C)CC2)cc1,inactive: -0.06%
17,Cc1ccc(N/C(=N/P(=O)(N2CCOCC2)N2CCOCC2)N2CCOCC2)cc1,inactive: 0.46%
18,NC(=O)c1cc([N+](=O)[O-])cc([N+](=O)[O-])c1N,inactive: -0.02%
19,O=C(Nc1ccc(C(F)(F)F)cc1[N+](=O)[O-])c1cc([N+](=O)[O-])cc([N+](=O)[O-])c1,inactive: -0.03%
20,COc1ccc(NC2=NCC(CBr)S2)cc1 (stereo unspecified),inactive: -0.18%
21,CCOP(=O)(OCC)C(=O)c1ccccc1Cl,inactive: -0.1%
22,O=C(Nc1ccccc1[N+](=O)[O-])c1ccc([N+](=O)[O-])cc1[N+](=O)[O-],inactive: -0.03%
23,CN(C(=O)COC(=O)C(O)(c1ccccc1)c1ccccc1)c1ccccc1,inactive: 0.38%

row,SMILES,normalized activity (activation)
1,O=[N+]([O-])c1ccc(Oc2ccccc2[N+](=O)[O-])c([N+](=O)[O-])c1,inactive: 0.44%
2,O=[N+]([O-])c1cc([N+](=O)[O-])c(CCN2CCOCC2)c([N+](=O)[O-])c1,inactive: 0.37%
3,CCOP(=Nc1nc2ccccc2n2nnnc12)(OCC)OCC,inactive: 0.48%
4,O=[N+]([O-])c1cc([N+](=O)[O-])c(OCC(O)C[n+]2ccccc2)c([N+](=O)[O-])c1 (stereo unspecified),inactive: -0.29%
5,CCOP(=S)(OCC)c1cccc(C(=O)O)c1,inactive: -0.05%
6,O=[N+]([O-])c1cc([N+](=O)[O-])c(SCCNc2ccccc2)c([N+](=O)[O-])c1,inactive: -0.13%
7,CC(C)NC(=O)N(Cc1ccco1)C1CCN(CCc2ccccn2)CC1,inactive: 0.11%
8,Cc1cc(NP2(=O)C=C(c3ccccc3)OC(c3ccccc3)=C2)n[nH]1,inactive: -0.07%
9,Cn1c(SCC(=O)c2ccccc2OC(F)F)nc2ccccc21,inactive: 0.11%
10,ClCCN1CCn2c1nc1ccccc12,inactive: -0.17%
11,CCOP(=O)(NNc1ccccc1)OCC,inactive: 0.73%
12,O=[N+]([O-])c1cc([N+](=O)[O-])c2nc(-c3ccc([N+](=O)[O-])o3)[nH]c2c1,inactive: 0%
13,O=C(COC(=O)C(O)(c1ccccc1)c1ccccc1)NCc1ccc2c(c1)OCO2,inactive: -0.29%
14,CCCCOP(=O)(OCCCC)N(CC)CC,inactive: -0.01%
15,CCOP(=O)(Nc1ccc(Br)cc1)OCC,inactive: -0.05%
16,O=C(c1ccc2c(c1)OCO2)N(Cc1ccco1)C1CCN(CCc2ccccn2)CC1,inactive: -0.19%
17,O=[N+]([O-])c1cc(/C=N/N=C/c2cc([N+](=O)[O-])cc([N+](=O)[O-])c2O)c(O)c([N+](=O)[O-])c1,inactive: -0.52%
18,C[n+]1c2n(c3ccccc31)CC(Cl)CS2 (stereo unspecified),inactive: 0.61%
19,Cc1c(Nc2ccc([N+](=O)[O-])cc2[N+](=O)[O-])cccc1[N+](=O)[O-],inactive: 0.06%
20,C/C(=N\Nc1ccc([N+](=O)[O-])cc1[N+](=O)[O-])c1cccc([N+](=O)[O-])c1,inactive: -0.06%
21,CN1C(=O)C2C(NC(=NCCN3CCOCC3)N2C)N(C)C1=O (stereo unspecified),inactive: 0.52%
22,CC(C)(C)C(=O)NC(Sc1ccncn1)C(Cl)(Cl)Cl (stereo unspecified),inactive: -0.2%
23,Nc1c([N+](=O)[O-])cc(C(=O)c2cc([N+](=O)[O-])c(N)c([N+](=O)[O-])c2)cc1[N+](=O)[O-],inactive: -0.09%

row,SMILES,normalized activity (activation)
1,CC(=O)N(Cc1ccco1)C1CCN(CCc2cccs2)CC1,inactive: -0.03%
2,ClC(Cl)(Cl)C1=NP2(=NC(c3ccccc3)=N1)OCCCO2,inactive: 0.06%
3,CCN/N=C/c1c([N+](=O)[O-])cc([N+](=O)[O-])cc1[N+](=O)[O-],inactive: -0.1%
4,CCOc1ccc(NC(=O)c2cc([N+](=O)[O-])cc([N+](=O)[O-])c2)c([N+](=O)[O-])c1,inactive: 0.21%
5,CCOP(=O)(Nc1cccc(C(F)(F)F)c1)OCC,inactive: 0.08%
6,Cc1ccc(S(=O)(=O)N2C(=O)CSC2C(Cl)(Cl)Cl)cc1 (stereo unspecified),inactive: 0%
7,Cc1cc(C)nc(NNc2c([N+](=O)[O-])cc([N+](=O)[O-])c(C)c2[N+](=O)[O-])n1,inactive: -0.08%
8,O=C(N/N=C/c1ccc([N+](=O)[O-])cc1)c1cc([N+](=O)[O-])cc([N+](=O)[O-])c1,inactive: -0.15%
9,Cc1cc(NP2(=O)C=C(c3ccccc3)SC(c3ccccc3)=C2)n[nH]1,inactive: 0.52%
10,Cc1nc(Nc2cccc([N+](=O)[O-])c2)nc(Nc2cccc([N+](=O)[O-])c2)c1[N+](=O)[O-],inactive: -2.34%
11,O=C(OC1CN2CCC1CC2)C1COc2ccccc2O1 (stereo unspecified),inactive: 0.82%
12,COP(=O)(NS(=O)(=O)c1ccc(Cl)cc1)OC,inactive: -0.02%
13,O=C(CCNCCCl)c1ccccc1,inactive: -0.07%
14,O=P(Nc1ccccn1)(OCC(F)(F)F)Oc1ccccc1 (stereo unspecified),inactive: 0.18%
15,CCCCOP1(=S)N=C2c3ccccc3CN2c2cc(N(C)C)ccc21 (stereo unspecified),inactive: 0.07%
16,CCc1nc2c(n1)c1c(non1O)c1c2no[n+]1[O-],inactive: 0.09%
17,CCOC(=O)c1ccccc1OP(=O)(OCC)SCC(C)C (stereo unspecified),inactive: 0.07%
18,Cc1c([N+](=O)[O-])c([N+](=O)[O-])nn1CC(=O)Nc1cc(O)cc([N+](=O)[O-])c1,inactive: -0.43%
19,Cc1c([N+](=O)[O-])cc(C(=O)Nc2ccc([N+](=O)[O-])cc2)cc1[N+](=O)[O-],inactive: 0.02%
20,Cc1cccc(NC2=NCC(CBr)S2)c1 (stereo unspecified),inactive: 0.47%
21,N=C(N)SCC(Br)CN1C(=O)c2ccccc2C1=O (stereo unspecified),inactive: -0.03%
22,CC(C)OC(=O)NC(SC#N)C(Cl)(Cl)Cl (stereo unspecified),inactive: 0.49%
23,O=P(/N=C(/N1CCOCC1)C(Cl)(Cl)Cl)(N1CCOCC1)N1CCOCC1,inactive: -0.12%

row,SMILES,normalized activity (activation)
1,O=C(COC(=O)C(O)(c1ccccc1)c1ccccc1)NCc1cccs1,inactive: 0.13%
2,O=C(OC1CN2CCC1CC2)c1cccc(F)c1 (stereo unspecified),inactive: -0.23%
3,CC1Cc2ccccc2N1C(=O)COC(=O)C(O)(c1ccccc1)c1ccccc1 (stereo unspecified),inactive: 0.01%
4,CNC(=O)c1nsnc1NCCCl,inactive: -0.46%
5,CCOP(=O)(Nc1cccc(F)c1)OCC,inactive: 0.07%
6,O=C(N/N=C/c1ccc([N+](=O)[O-])o1)c1cc([N+](=O)[O-])cc([N+](=O)[O-])c1,inactive: -0.04%
7,COc1ccc(CCN2CCC(N(Cc3ccco3)C(=O)c3cccc(C#N)c3)CC2)cc1,inactive: -0.09%
8,Cc1ccc(NP(=O)(OCC(C)C)OCC(C)C)nc1,inactive: 1.01%
9,O=[N+]([O-])c1ccc(N/N=C/C=C/c2ccc([N+](=O)[O-])o2)c([N+](=O)[O-])c1,inactive: -0.01%
10,COc1ccc(S(=O)(=O)N(CCCl)CCCl)cc1,inactive: 0.07%
11,CC(C)NC(=O)N(Cc1cccnc1)C1CCN(CCc2cccs2)CC1,inactive: -0.01%
12,O=C(Nc1c(Cl)cc([N+](=O)[O-])cc1[N+](=O)[O-])c1ccc([N+](=O)[O-])cc1,inactive: -0.16%
13,BrCC1Cn2c(nnc2-c2cccnc2)S1 (stereo unspecified),inactive: -0.12%
14,COc1ccc(/C=C2/C(=O)NC(=O)N(Cc3ccco3)C2=O)c(OC)c1,inactive: -0.78%
15,O=C(Nc1cccc(F)c1)N(Cc1ccco1)C1CCN(CCc2ccccn2)CC1,inactive: 0.26%
16,CC(C)NC(=O)N(Cc1ccco1)C1CCN(CCc2cccs2)CC1,inactive: 0.03%
17,O=P(/C=C(\Cl)c1ccccc1)(/C=C(\Cl)c1ccccc1)Nc1nncs1,inactive: 0.02%
18,O=[N+]([O-])c1cc([N+](=O)[O-])c(NCCCO)c([N+](=O)[O-])c1,inactive: 0.15%
19,CC(=O)OC1CN2CCC1C(c1ccccc1)C2 (stereo unspecified),inactive: 0.33%
20,CCc1cc2c[n+](C3CCCCC3)sc2s1,inactive: -0.22%
21,COc1ccccc1OP(=O)(Nc1ccccn1)Oc1ccccc1OC,inactive: 0.08%
22,O=C(COC(=O)C(O)(c1ccccc1)c1ccccc1)NCCN1C(=O)CSC1=O,inactive: -0.15%
